Measurements as given in publication PMC6172466 (EMBO Reports, 2018).

Target: T1, N-terminally TAMRA-labeled monoubiquitin (UniProt P0CG48 1-76, TAMRA on the N-terminus)
T1 construct: ubiquitin with a free C-terminus; also called TAMRA-monoubiquitin; ubiquitin labeled with an N-terminal fluorophore
Assay: fluorescence polarisation; equilibrium binding of USP4 to TAMRA-labelled ubiquitin species; as described in ref. 32
Conditions: both partners purified

Kd: 92 ± 21 nM
B1: USP4 (8-925) wild-type (enzyme, human, UniProt Q13107 8-925, looked up)
chain: RERPDAETQKSELGPLMRTTLQRGAQWYLIDSRWFKQWKKYVGFDSWDMYNVGEHNLFPGPIDNSGLFSDPESQTLKEHLIDELDYVLVPTEAWNKLLNWYGCVEGQQPIVRKVVEHGLFVKHCKVEVYLLELKLCENSDPTNVLSCHFSKADTIATIEKEMRKLFNIPAERETRLWNKYMSNTYEQLSKLDNTVQDAGLYQGQVLVIEPQNEDGTWPRQTLQSKSSTAPSRNFTTSPKSSASPYSSVSASLIANGDSTSTCGMHSSGVSRGGSGFSASYNCQEPPSSHIQPGLCGLGNLGNTCFMNSALQCLSNTAPLTDYFLKDEYEAEINRDNPLGMKGEIAEAYAELIKQMWSGRDAHVAPRMFKTQVGRFAPQFSGYQQQDSQELLAFLLDGLHEDLNRVKKKPYLELKDANGRPDAVVAKEAWENHRLRNDSVIVDTFHGLFKSTLVCPECAKVSVTFDPFCYLTLPLPLKKDRVMEVFLVPADPHCRPTQYRVTVPLMGAVSDLCEALSRLSGIAAENMVVADVYNHRFHKIFQMDEGLNHIMPRDDIFVYEVCSTSVDGSECVTLPVYFRERKSRPSSTSSASALYGQPLLLSVPKHKLTLESLYQAVCDRISRYVKQPLPDEFGSSPLEPGACNGSRNSCEGEDEEEMEHQEEGKEQLSETEGSGEDEPGNDPSETTQKKIKGQPCPKRLFTFSLVNSYGTADINSLAADGKLLKLNSRSTLAMDWDSETRRLYYDEQESEAYEKHVSMLQPQKKKKTTVALRDCIELFTTMETLGEHDPWYCPNCKKHQQATKKFDLWSLPKILVVHLKRFSYNRYWRDKLDTVVEFPIRGLNMSEFVCNLSARPYVYDLIAVSNHYGAMGVGHYTAYAKNKLNGKWYYFDDSNVSLASEDQIVTKAAYVLFYQRRDD
notes: human USP4, residues 8-925; also called USP4 WT; the wild-type enzyme
